# Apparent affinities of Ab-14 variants for a coronavirus HR2 peptide

The measurements come from Engelhart et al. 2022 (doi:10.1038/s41597-022-01779-4) through the FLAb antibody collection.

The target is the same throughout: PDVDLGDISGINAS, from the HR2 region of SARS-CoV-2 spike.

Ab-14 is the parent antibody, in scFv form: VH, then three GGGGS repeats, then VL. The heavy chain is unchanged in all variants.
VH: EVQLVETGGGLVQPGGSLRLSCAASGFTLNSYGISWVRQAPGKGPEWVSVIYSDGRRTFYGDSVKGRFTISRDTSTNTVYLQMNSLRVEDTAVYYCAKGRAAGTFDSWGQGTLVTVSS
VL: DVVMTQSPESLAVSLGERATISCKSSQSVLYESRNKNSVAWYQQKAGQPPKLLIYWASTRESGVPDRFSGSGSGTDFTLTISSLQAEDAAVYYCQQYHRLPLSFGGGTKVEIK

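Phage display of a naive human antibody library on the peptide gave the parent. In library AAYL50, one, two or three CDR residues were substituted; doubles and triples were drawn at random. The scFvs were displayed on barcoded MATa yeast, the peptide on MATalpha yeast. The frequency of each diploid, read from paired DNA barcodes, reflects how well the two displayed proteins bind. Scores were corrected for input abundance and mapped to Kd with protein pairs of known affinity run in the same pool. There are three technical replicates.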

Variants are written as CDR1, CDR2 and CDR3 of the light chain (limits as in the source). Parent: KSSQSVLYESRNKNSVA, WASTRES, QQYHRLPLS.
Affinities are written as log10 Kd with Kd in nM; a lower number is a better binder.
A mean of the replicates is given; it leaves out those without a signal.
Where no diploid with the target was found in any replicate, the entry reads "no signal": below detection, most likely a poor binder, though not proof of it.
Nonspecific signal, from three strains lacking the peptide, appeared in 18% of pairings of library AAYL50, centred on 4.19 (5% of these signals below 2.99); values are not corrected for it.
For reference, the parent read 0.65 as the reference entry and 1.68 as a member of this library.

mean, log10 nM	replicates with signal	CDR-L1	CDR-L2	CDR-L3
1.18	3 of 3	KSSQSVLYESHNKNSVA	WASTRES	QQYHRLPLE
4.04	3 of 3	QSSLSVLYESRNKNSVA	WASTDES	QQYHRLPLS
1.70	3 of 3	KSSQNVLYESRNMNSVA	WASTRES	QQYHRLPLE
no signal	0 of 3	KSSQSVLYEPRNKNSVK	WASPRES	QQYHRLPLS
2.42	3 of 3	KSSQSVCYESRNKLSVA	WASTRNS	QQYHRLPLS
0.06	3 of 3	KSSQSVLYESRNPNSVA	WASTRVS	QDYHRLPLS
no signal	0 of 3	KSSGSVLYESRNANSVA	WASTRES	QQYHRLPLS
0.70	3 of 3	KSSQSVLYESRNKNSVA	AASTRVS	QQFHRLPLS
0.86	3 of 3	KSSQSVYYEPRNKNSVA	WAETRES	QQYHRLPLS
3.91	2 of 3	DSSQEVLYESRNKNSVA	WASTRES	QQYHRPPLS
1.52	3 of 3	KWSQSSLNESRNKNSVA	WASTRES	QQYHRLPLS
no signal	0 of 3	KSSQSVLYESWNKNSAA	WASTRES	QQYHRLPLF
no signal	0 of 3	KSSQSVLYESRNKNSVA	WLSTRED	QQYHRLYLS
no signal	0 of 3	KSDQSYLYESRNKNSVA	WASTRES	QQYHRCPLS
0.68	3 of 3	KSSQSVLAESRNMNSVA	WARTRES	QQYHRLPLS
0.45	3 of 3	KSSQSVLYEERNGNSVA	WASTRSS	QQYHRLPLS
3.53	3 of 3	YSTQSVLYESRNKNSVA	WASTIES	QQYHRLPLS
no signal	0 of 3	KSSQSVLYESNNKNSVA	WASTRES	QQYHRLFLC
0.63	3 of 3	KSSEVVLYESRNKNSVA	WGSTRES	QQYHRLPLS
2.90	3 of 3	ESSQSVLYESRNKNAVA	WASTRES	QQYHMLPLS
0.80	3 of 3	FSSQSVLYESPNKNSVA	WGSTRES	QQYHRLPLS
0.82	3 of 3	KSSQSVLYESRNKNDVA	AASTRES	QQYHRLPLG
3.09	1 of 3	KSDQSVLYRSRNKNSVA	WASTRES	QQYHRLPLR
1.25	3 of 3	KSSQSVTYESRFKNSVA	WASTRDS	QQYHRLPLS
3.90	1 of 3	KESQSVLWESRNKNSVA	WASTRES	CQYHRLPLS
no signal	0 of 3	KSSQSVLYEHRNKNSVA	WQSTLES	QQYHRLPLS
0.48	3 of 3	KLSQSVLYESRNKNSVA	WASTRES	AQKHRLPLS
1.95	3 of 3	KWSQSVLYESRNKISVA	WASTRES	QQYFRLPLS
no signal	0 of 3	KSSQSVLYESRNKNSAD	WASTRES	PQYHRLPLS
no signal	0 of 3	KSSQSVLYEIRNANSVA	WASTRES	QQYHRLPES
1.46	3 of 3	KSSQSVLYESRNKHSVA	WAPTRES	QQYTRLPLS
no signal	0 of 3	KSSQSVLYESRNKNSVA	WASTTES	QQYVRLPLP
2.81	1 of 3	FSSQSVLYESRNKNSVA	WKSQRES	QQYHRLPLS
0.87	3 of 3	KSSDSVLYESRNKNSVA	RASTRES	QQYHRLPKS
1.50	3 of 3	KASQSVAYESRNKNDVA	WASTRES	QQYHRLPLS
4.16	1 of 3	KSSQSCLYESRNKNSVK	WASTREY	QQYHRLPLS
no signal	0 of 3	KSSHSVLYESRNKNSVA	IASTRES	QQYHRLPLR
no signal	0 of 3	KSSQSVSYWSRNKNSVA	WASTRES	QQYHRLRLS
2.45	3 of 3	KSSQSVKYESRNKNSVA	WASTRES	QQYWRLRLS
1.78	3 of 3	KSSQSVLYESSNKNSVA	WMSTRWS	QQYHRLPLS
1.12	3 of 3	WSSQSVLYESRNKNNVA	WASHRES	QQYHRLPLS
no signal	0 of 3	KSSGSVLYEARNKNSVA	WYSTRES	QQYHRLPLS
no signal	0 of 3	KSSQQVLYESRNKNSVA	WSSTRES	QQYHRVPLS
1.30	3 of 3	KSSQSVLYESRNKNSVA	WASTKES	QQYHRYPLS
1.59	3 of 3	KSSQSVLYESRNKNSVA	WASTRES	QQYHRLPTT
5.16	2 of 3	KSSQSVLWESRNKNSVK	WASTRES	QQYHRLPLW
3.50	1 of 3	KSSQSVLYESRNKNSVA	WAKTRES	VQMHRLPLS
3.89	3 of 3	KSSQAVLYESRNKNSVA	WASTRHS	QIYHRLPLS
no signal	0 of 3	KSSPSVLYESRNKNIVA	CASTRES	QQYHRLPLS
3.33	1 of 3	KSSQVVLYESRNKNSVA	WISTRES	QIYHRLPLS
1.61	3 of 3	KSSQSVLYESRGKNSVA	WASTRIS	QQYHRLPLS
no signal	0 of 3	KSSQSPLYESRNKGSVA	WASTRLS	QQYHRLPLS
no signal	0 of 3	KSYQSVLYESRNKQSVA	WARTRES	QQYHRLPLS
no signal	0 of 3	KSSQSVLYESRNKNSVA	WAKSRES	QIYHRLPLS
1.12	3 of 3	KSSQSVLYESRRKNSVA	WASMRES	QQYHRLPLS
3.20	1 of 3	KSSQSVLYESRNKNSCA	WASTRES	QTYHRLVLS
4.44	1 of 3	KSSQSVLYESRPKNSVA	WAQTRES	DQYHRLPLS
no signal	0 of 3	KSSQSVLYERRNKNSVA	WASTRES	QQYHYLELS
3.73	1 of 3	KSSQSVLYESRNKNSVA	WASTRES	VQYHRAPLG
no signal	0 of 3	KSSQSVLYESRNKVSVA	WASTRLS	QQYHRLPES
4.01	3 of 3	KSSQSVLYERRNKNSVA	WASTHES	QQYHRLPLS
3.25	1 of 3	KSSQSVLYESRNKNSVS	DASTRES	QQWHRLPLS
no signal	0 of 3	KSSQSVLYESRNKNSVA	WASTRKS	MQYTRLPLS
1.95	3 of 3	HFSQWVLYESRNKNSVA	WASTRES	QQYHRLPLS
no signal	0 of 3	KSSQSVLYESRNKNSVA	WASTRES	QQEFRLPLV
no signal	0 of 3	KSSQSVLEESRNKNSVA	WVSTRES	QQYHRLPLS
no signal	0 of 3	KSSQSVLYESRNKNSVA	WASTYES	QQYVKLPLS
0.76	3 of 3	KSSQSVLYMSRNKNSVA	MASQRES	QQYHRLPLS
no signal	0 of 3	KSSQSVLYESRNKNSVN	WASTRLS	QQYHRLPLS
1.78	1 of 3	KSYQSVLYESRNKNSVA	WASTTES	QQYHDLPLS
5.74	1 of 3	KSSQSVEYESRNKNSVA	PAETRES	QQYHRLPLS
no signal	0 of 3	KSSQSVLYESRNKNLVE	DASTRES	QQYHRLPLS
2.61	3 of 3	ASSQSVLYESRNKWSVA	WASTRES	QQYHQLPLS
0.18	3 of 3	KSSQSVMYESNNKNSVA	NASTRES	QQYHRLPLS

Picked from the list: the 11 lowest averages where every replicate gave a value.

CDR-L1	CDR-L2	CDR-L3	mean, log10 nM	replicates with signal
KSSQSVLYESRNPNSVA	WASTRVS	QDYHRLPLS	0.06	3 of 3
KSSQSVMYESNNKNSVA	NASTRES	QQYHRLPLS	0.18	3 of 3
KSSQSVLYEERNGNSVA	WASTRSS	QQYHRLPLS	0.45	3 of 3
KLSQSVLYESRNKNSVA	WASTRES	AQKHRLPLS	0.48	3 of 3
KSSEVVLYESRNKNSVA	WGSTRES	QQYHRLPLS	0.63	3 of 3
KSSQSVLAESRNMNSVA	WARTRES	QQYHRLPLS	0.68	3 of 3
KSSQSVLYESRNKNSVA	AASTRVS	QQFHRLPLS	0.70	3 of 3
KSSQSVLYMSRNKNSVA	MASQRES	QQYHRLPLS	0.76	3 of 3
FSSQSVLYESPNKNSVA	WGSTRES	QQYHRLPLS	0.80	3 of 3
KSSQSVLYESRNKNDVA	AASTRES	QQYHRLPLG	0.82	3 of 3
KSSQSVYYEPRNKNSVA	WAETRES	QQYHRLPLS	0.86	3 of 3